These results are taken from PubChem BioAssay AID624464 (National Center for Advancing Translational Sciences (NCATS), 2012).

The chains behind the UniProt entries cited, without tags or fusion partners.
UniProt P14416, whole entry, looked up: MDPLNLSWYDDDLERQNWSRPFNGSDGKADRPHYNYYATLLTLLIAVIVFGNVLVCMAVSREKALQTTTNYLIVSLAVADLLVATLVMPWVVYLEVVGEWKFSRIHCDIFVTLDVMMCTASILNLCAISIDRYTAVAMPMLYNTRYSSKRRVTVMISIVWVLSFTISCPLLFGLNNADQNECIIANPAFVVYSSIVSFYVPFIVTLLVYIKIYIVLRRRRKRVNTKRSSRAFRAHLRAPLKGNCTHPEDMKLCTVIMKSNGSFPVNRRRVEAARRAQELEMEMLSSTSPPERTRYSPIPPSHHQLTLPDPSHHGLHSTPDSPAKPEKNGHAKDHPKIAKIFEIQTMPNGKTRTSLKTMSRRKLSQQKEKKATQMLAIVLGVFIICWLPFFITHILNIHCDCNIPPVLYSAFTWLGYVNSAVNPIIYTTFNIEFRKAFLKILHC

The entries are a selection whose mix differs from that of the whole data set. The source made the active and inactive calls. Cut-off read from the data, not from the text of the source: active = potentiation above about 50%; inconclusive = mostly about 30% to 49%; inactive = weaker than that.

This experiment has as its target D(2) dopamine receptor (Homo sapiens) (UniProt P14416). Kind of experiment: Beta-Arrestin HTS for Positive Allosteric Modulators of the Human D2 Dopamine Receptor: Potentiators. The conditions noted are these: DiscoveRx D2 beta-arrestin cells, luminescence, 90 min; hits give high values; 100% = 57 uM dopamine signal. The source says:
There is great interest in identifying small molecule ligands for G-protein coupled receptors (GPCRs) as nearly 50% of all FDA-approved drugs target these important receptor proteins. […] Amongst the dopamine receptors (DARs), the D2 is arguably one of the most validated drug targets in neurology and psychiatry. For instance, all receptor-based antiparkinsonian drugs primarily work via stimulating the D2 DAR, whereas all FDA-approved antipsychotic agents are antagonists of this receptor. The D2 DAR is also therapeutically targeted in other disorders such as restless legs syndrome, tardive dyskinesia, Tourette's syndrome, and hyperprolactinemia.
To this end, a miniaturized qHTS screen was developed to be screened against the Molecular Libraries Small Molecule Repository (MLSMR). This assay seeks to identify potentiators against the D2 DAR.
NIH Molecular Libraries Probe Production Network [MLPCN]
NIH Chemical Genomics Center [NCGC]
PI Name: David Sibley, National Institutes of Neurological Disorders and Stroke
DiscoveRx D2 cells were thawed from frozen stock and seeded at 2,100 cells/ 3 uL/well media (DiscoveRx Plating Reagent 2) with MultiDrop Combi dispenser (Thermo Scientific, Logan, UT) onto white tissue culture treated 1536-well Aurora plates (Brooks Automation, Chelmsford, MA) and allowed to attach overnight at 37 deg C, 5% CO2. Next, 23 nL/well of compound solutions in DMSO were added with a pintool transfer (Kalypsis, San Diego, CA). As the positive control, 1 uL/well dopamine (EC100, 57 uM final concentration) diluted in buffer (HBSS + 10 mM HEPES + SMB + 0.1 %Tween-20) was dispensed to 1 column of each plate. EC20 (Dopamine at 50 nM final concentration) was dispensed to the rest of the plate except columns 1 &2 which were used as negative control (EC=0, buffer only), 1 uL/well as well. […] The plates were incubated at ambient temperature for 1 hour and then the luminescent signal was read on ViewLux plate reader (PerkinElmer, Waltham, MA).
As to `O=[N+]([O-])c1cc([N+](=O)[O-])c(CCNc2ccccc2)c([N+](=O)[O-])c1`, the potentiation was active: 62.8%. Under `CCc1nc2c(n1)c1c(non1O)c1c2no[n+]1[O-]` stands active: 63.4%.

As to `O=[N+]([O-])c1cc(Oc2ccc([N+](=O)[O-])cc2C(F)(F)F)cc([N+](=O)[O-])c1`, the potentiation is active: 53.5%.
